Measured values published in ChEMBL document CHEMBL5226352, “Inhibition of AlkB Nucleic Acid Demethylases: Promising New Epigenetic Targets” (J Med Chem, 2021).

By UniProt entry, the sequences of proteins in these tests, tags left out. Where a name states a change or a piece, a line headed by the entry shows the natural chain unless it says otherwise.
UniProt Q9GZT9: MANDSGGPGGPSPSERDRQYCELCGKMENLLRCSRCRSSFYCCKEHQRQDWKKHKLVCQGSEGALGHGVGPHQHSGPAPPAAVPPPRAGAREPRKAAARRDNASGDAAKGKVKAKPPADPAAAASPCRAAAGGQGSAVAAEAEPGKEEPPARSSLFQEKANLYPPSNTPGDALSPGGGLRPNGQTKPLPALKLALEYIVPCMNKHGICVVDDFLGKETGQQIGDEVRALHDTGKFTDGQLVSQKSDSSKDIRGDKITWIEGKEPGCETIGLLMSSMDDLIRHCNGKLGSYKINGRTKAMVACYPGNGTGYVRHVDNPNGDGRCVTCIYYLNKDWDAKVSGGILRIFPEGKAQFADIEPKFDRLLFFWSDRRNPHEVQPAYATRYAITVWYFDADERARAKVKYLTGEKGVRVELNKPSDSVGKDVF

Biological target: Egl nine homolog 1 (Homo sapiens, UniProt Q9GZT9)

Work on `O=C(O)CC[C@@H](O)C(=O)O` yielded an IC50 of 7.3 mM.
